Experimental findings from patent US20240335548A1, “MACROMOLECULES” (Starpharma Pty Ltd, priority 2011, published 2024) are described below.

The nature of data set [1]: Water solubility study on drug loaded dendrimers. Format: physicochemical. Here is the method:
Protocol: To 30 mg of dendrimer (freeze-dried from water) was added 100 μL of deionised water. After mixing for 10 minutes, additional aliquots of water (10-30 μL per addition) were added with vortexing and incubation for 10 mins until full dissolution was obtained. This amount is represented in Table 1 as the water solubility of the dendrimer. The equivalent drug solubility is determined by multiplying the % drug loading/100 and is represented in Table 1 (column 3) as Equivalent drug solubility on dendrimer. Finally, the fold increase is obtained by dividing the Equivalent drug solubility on dendrimer by the solubility of the drug and is represented in Table 1 (column 4).

The nature of data set [2]: Plasma stability study: docetaxel release in mouse plasma. In kind it is in vitro ADME.
For data set [3] the following is noted: for Mean Liver Weights (g) (sd) / Mean Spleen Weights (g) (sd): day 16, one day after final dose.
The nature of data set [4]: Toxicity studies in rats (neutropenia, hematology, microscopic changes).
The conditions of data set [5]: compared with SPL9049.
Data set [6] in a line: Particle sizing using Dynamic Light Scattering. Format: physicochemical.
Setting [7] is: deionised water, until full dissolution.
[8] abbreviates: equivalent drug solubility divided by solubility of the drug.
Setting [9] is: water solubility x % drug loading/100.
Setting [10] is: 0.5 hours, mouse plasma, 37° C.
[11] abbreviates: 2.5 hours, mouse plasma, 37° C.
Where [12] appears, read: Day 1 (baseline, before dosing).
[13] abbreviates: Day 11, dosing days 1, 8 at MTD doses.

Where two headings read alike, the source gives them in different places.

As for “BHALys[Lys]32[α-4-HSBA-4Aba-DTX]32[ε-PEG1100]32 [1 (b)]”, the “Water solubility of dendrimer” value in data set [1] (setting [7]) was found to be 186 mg/mL. In data set [1] (setting [8]), the “Fold increase in drug solubility” value is 4800. Further, in data set [1] (setting [9]), the “Equivalent drug solubility on dendrimer” value was 24 mg/mL. In addition, the “Docetaxel release in plasma” value in data set [2] (setting [10]) was 0 percentage of total docetaxel; in data set [2] (setting [11]), 3 percentage of total docetaxel; in data set [2] (22 hours, mouse plasma, 37° C.), 14.5 percentage of total docetaxel.
As for “BHALys[Lys]32[α-4-HSBA-Cp-DTX]32[ε-PEG1100]32 [Example 4 (c)]”, the “Fold increase in drug solubility” value in data set [1] is recorded as 4400. Also, in data set [3] (setting [12]), the “Mean Lymphocytes (sd)” value is recorded as 4.95 (2.25) × 10^9 cells/L, the “Mean Neutrophils (sd)” value was 1.07 (0.57) × 10^9 cells/L and the “Mean WBC (sd)” value is 4.95 (2.25) × 10^9 cells/L. In data set [3] (setting [13]), the “Mean Lymphocytes (sd)” value was 5.37 (1.72) × 10^9 cells/L, the “Mean Neutrophils (sd)” value was 1.27 (0.64) × 10^9 cells/L and the “Mean WBC (sd)” value is recorded as 5.37 (1.72) × 10^9 cells/L. In data set [3], the “Mean Liver Weights (g) (sd)” value is on record as 0.762 g and the “Mean Spleen Weights (g) (sd)” value is on record as 0.087 g.
Regarding “BHALys[Lys]32[α-DGA-Cabazitaxel]32†[ε-PEG˜2100]32‡ [SPL9048]”, the “neutrophil rebound at day 14” value in data set [4] (1 mg/kg) is “virtually no rebound”. Further, the “neutropenia (neutrophil values, day 7 in particular)” value in data set [4] (1 mg/kg, male and female rats, FIGS. 5 and 6) is on record as “lesser/no dip in values”. Moreover, the treatment-related microscopic changes result in data set [4] (2.5 mg/kg) was “Treatment-related microscopic changes were observed in the thymus, bone marrow, and spleen”. Also, the “neutropenia at day 5” value in data set [4] (2.5 mg/kg active agent) is listed as “less neutropenic”. The “test article related hematology changes” value in data set [4] (2.5 mg/kg, by Day 2 through Day 7) was “decreases in white blood cells, neutrophils, lymphocytes, monocytes, eosinophil, platelets, and reticulocytes”. The “stability in solution (e.g. with regard to precipitation)” value in data set [5] is on record as “increased stability in solution”.
Regarding “BHALys[Lys]32[α-DGA-DTX]32[ε-PEG1100]32 [Example 3 (b)]”, in data set [1], the “Fold increase in drug solubility” value is 5600. In data set [3] (setting [12]), the “Mean Lymphocytes (sd)” value is 5.79 (1.53) × 10^9 cells/L, the “Mean Neutrophils (sd)” value is listed as 1.01 (0.53) × 10^9 cells/L and the “Mean WBC (sd)” value was 5.79 (1.53) × 10^9 cells/L. For the same substance, in data set [3] (setting [13]), the “Mean Lymphocytes (sd)” value is reported as 3.99 (0.29) × 10^9 cells/L, the “Mean Neutrophils (sd)” value is listed as 1.84 (0.18) × 10^9 cells/L and the “Mean WBC (sd)” value is reported as 3.99 (0.29) × 10^9 cells/L. Besides, in data set [3], the “Mean Liver Weights (g) (sd)” value is 0.763 g and the “Mean Spleen Weights (g) (sd)” value is given as 0.077 g.
On to “BHALys[Lys]32[α-GFLG-Glu-DTX]32[ε-PEG1100]32 [15 (c)]”, for which, in data set [1], the “Equivalent drug solubility on dendrimer” value worked out at 45 mg/mL, the “Fold increase in drug solubility” value is 9000 and the “Water solubility of dendrimer” value turned out to be 180 mg/mL.
Taken in the same sequence, the figures for “BHALys[Lys]32[α-GGG-Glu-DTX]32[ε-PEG1100]32 [14 (c)]” were 57 mg/mL, 11400 and 183 mg/mL.
As for “BHALys[Lys]32[α-GILGVP-Glu-DTX]32[ε-PEG1100]32 [Example 16]”, in data set [1], the “Equivalent drug solubility on dendrimer” value came to 59 mg/mL, the “Fold increase in drug solubility” value came out at 11800 and the “Water solubility of dendrimer” value is on record as 205 mg/mL. In addition, in data set [2], the “Docetaxel release in plasma” value is given as 0 percentage of total docetaxel and the “release of docetaxel in plasma” value is “do not substantially release docetaxel in plasma”.
For “BHALys[Lys]32[α-GILGVP-Glu-DTX]32[ε-t-PEG2300]32 [Example 17]”, in data set [1], the “Equivalent drug solubility on dendrimer” value is listed as 67 mg/mL, the “Fold increase in drug solubility” value came to 13400 and the “Water solubility of dendrimer” value is reported as 373 mg/mL. In data set [2], the “release of docetaxel in plasma” value was “do not substantially release docetaxel in plasma”.
Consider “BHALys[Lys]32[α-PDT-DTX]32[ε-PEG1100]32 [9 (b)]”, for which the “Water solubility of dendrimer” value in data set [1] (setting [7]) was found to be 63 mg/mL. Moreover, in data set [1] (setting [8]), the “Fold increase in drug solubility” value is given as 4000. The “Equivalent drug solubility on dendrimer” value in data set [1] (setting [9]) came out at 20 mg/mL. Further, the “Docetaxel release in plasma” value is given as 0.5 percentage of total docetaxel in data set [2] (setting [10]); 1.5 percentage of total docetaxel in data set [2] (setting [11]); 1 percentage of total docetaxel in data set [2] (22 hours, mouse plasma, 37° C.).
In the case of “BHALys[Lys]32[α-PEG2-DTX]32[ε-PEG1100]32 [10 (b)]”, the “Water solubility of dendrimer” value in data set [1] (setting [7]) was found to be 138 mg/mL. For the same substance, the “Fold increase in drug solubility” value in data set [1] (setting [8]) came out at 8600. Moreover, the “Equivalent drug solubility on dendrimer” value in data set [1] (setting [9]) came to 43 mg/mL. In addition, the “Docetaxel release in plasma” value was 10 percentage of total docetaxel in data set [2] (setting [10]); 21 percentage of total docetaxel in data set [2] (setting [11]); 75 percentage of total docetaxel in data set [2] (22 hours, mouse plasma, 37° C.).
Turning to “BHALys[Lys]32[α-TDA-DTX]32[ε-PEG1100]32 [Example 8 (c)]”, in data set [1], the “Fold increase in drug solubility” value was determined as 8200. In addition, the “particle size, range of concentration dependent averages” value in data set [6] is listed as 8.9-10.1 nm. Further, in data set [3] (setting [12]), the “Mean Lymphocytes (sd)” value is given as 6.59 (0.62) × 10^9 cells/L, the “Mean Neutrophils (sd)” value is recorded as 0.93 (0.51) × 10^9 cells/L and the “Mean WBC (sd)” value is on record as 6.59 (0.62) × 10^9 cells/L. Moreover, in data set [3] (setting [13]), the “Mean Lymphocytes (sd)” value is listed as 4.27 (0.35) × 10^9 cells/L, the “Mean Neutrophils (sd)” value was 1.76 (0.15) × 10^9 cells/L and the “Mean WBC (sd)” value is on record as 4.27 (0.35) × 10^9 cells/L. For the same substance, in data set [3], the “Mean Liver Weights (g) (sd)” value was found to be 0.780 g and the “Mean Spleen Weights (g) (sd)” value is 0.092 g.
